Source: patent publication US20150031714A1, “METHODS AND COMPOSITIONS FOR PREVENTION OF ALLERGIC REACTION” (Baylor College of Medicine, priority 2013, published 2015)

Sequences of proteins named here, by UniProt entry; tags and fusion partners are left off. Residues count along the entry.
UniProt P40763, 2-770 limits assumed: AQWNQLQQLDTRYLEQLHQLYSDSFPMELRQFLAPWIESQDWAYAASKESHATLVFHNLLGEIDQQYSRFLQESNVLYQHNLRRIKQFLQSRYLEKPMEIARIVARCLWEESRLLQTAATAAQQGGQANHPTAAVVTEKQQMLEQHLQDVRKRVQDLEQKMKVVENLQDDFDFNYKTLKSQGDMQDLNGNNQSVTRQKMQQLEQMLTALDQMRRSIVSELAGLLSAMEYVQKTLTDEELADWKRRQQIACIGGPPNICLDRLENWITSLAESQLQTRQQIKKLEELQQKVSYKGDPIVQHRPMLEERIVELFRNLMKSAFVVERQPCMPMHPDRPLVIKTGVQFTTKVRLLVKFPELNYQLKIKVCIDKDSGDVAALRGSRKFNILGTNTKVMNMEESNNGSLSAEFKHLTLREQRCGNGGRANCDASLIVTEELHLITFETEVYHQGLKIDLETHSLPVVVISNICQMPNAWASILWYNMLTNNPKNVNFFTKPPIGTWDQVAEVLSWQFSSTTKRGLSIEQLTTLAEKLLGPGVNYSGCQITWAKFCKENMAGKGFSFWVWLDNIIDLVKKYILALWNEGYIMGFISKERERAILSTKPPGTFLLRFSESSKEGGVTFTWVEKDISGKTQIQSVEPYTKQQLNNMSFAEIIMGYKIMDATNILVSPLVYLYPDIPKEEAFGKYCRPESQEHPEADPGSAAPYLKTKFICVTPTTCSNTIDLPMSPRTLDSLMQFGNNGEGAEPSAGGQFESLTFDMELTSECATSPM

Target: T1, Stat3-DNA (hSIE) complexes (Homo sapiens, UniProt P40763)
T1 construct: high salt extracts were prepared from HepG2 cells incubated without or with IL-6 (30 ng/ml) for 30 minutes; endogenous in cells; host or cells: HepG2 (IL-6-stimulated), whole-cell high-salt extract
Experiment: Electrophoretic mobility shift assay (EMSA), Stat3:hSIE DNA binding
Format: biochemical
Details: 300 μM, extracts of IL-6-stimulated HepG2 cells
Method: Electrophoretic mobility shift assays were performed using whole-cell extracts prepared from HepG2 cells without and with stimulation with IL-6 (30 ng/ml) for 30 min. Protein (20 μg) was incubated with radiolabeled duplex oligonucleotide (hSIE) and DMSO without or with the indicated compounds (300 uM) for 60 minutes at 37° C. then separated by PAGE. The gel was dried and autoradiographed; the portion of the gel corresponding to the Stat3-bound hSIE band is shown. Data shown are representative of 2 studies.
Electrophoretic Mobility Shift Assay (EMSA): EMSA was performed using the hSIE radiolabeled duplex oligonucleotide as a probe as described (Tweardy et al., 1995). Briefly, high salt extracts were prepared from HepG2 cells incubated without or with IL-6 (30 ng/ml) for 30 minutes. Protein concentration was determined by Bradford Assay and 20 ug of extract was incubated with compound (300 uM) for 60 minutes at 37 °C. […] Gels were dried and autoradiographed.
Once in the nucleus, Stat3 dimers bind to specific DNA elements to activate and, in some instances, repress gene transcription. […] Compounds that bind to the phosphopeptide-binding site of Stat3 might be expected to do the same. […]

With `COC(=O)Cc1c(C)c2ccc(OCc3ccc(C(=O)OC)cc3)c(C)c2oc1=O` [Cpd3-7, methyl 4-({[3-(2-methyoxy-2-oxoethyl)-4,8-dimethyl-2-oxo-2H-chromen-7-yl]oxy}methyl)benzoate] the “Stat3:hSIE band intensity (amount of hSIE shifted)” value was “reduced the amount of hSIE shifted by half or greater”.
